The numbers were not newly measured in US8073633B2 (The Invention Science Fund I, LLC, priority 2008, dated 2011), which cites them from elsewhere.

Protein sequences, listed by entry. Tags and fused reporters are not part of them.
UniProt P10635, whole entry: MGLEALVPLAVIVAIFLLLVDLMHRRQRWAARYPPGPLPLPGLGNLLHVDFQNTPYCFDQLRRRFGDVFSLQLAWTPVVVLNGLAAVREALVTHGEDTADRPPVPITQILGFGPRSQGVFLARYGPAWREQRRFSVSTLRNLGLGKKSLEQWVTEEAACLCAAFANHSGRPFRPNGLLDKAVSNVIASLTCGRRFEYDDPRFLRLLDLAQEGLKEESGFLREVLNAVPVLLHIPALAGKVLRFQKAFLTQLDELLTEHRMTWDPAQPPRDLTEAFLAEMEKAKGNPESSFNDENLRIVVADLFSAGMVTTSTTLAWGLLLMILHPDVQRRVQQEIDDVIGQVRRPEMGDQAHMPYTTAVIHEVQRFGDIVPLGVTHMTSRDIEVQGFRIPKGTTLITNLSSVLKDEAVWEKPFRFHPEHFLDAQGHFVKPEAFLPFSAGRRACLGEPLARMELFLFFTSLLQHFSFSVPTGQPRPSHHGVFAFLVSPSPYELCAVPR
UniProt P05177, whole entry: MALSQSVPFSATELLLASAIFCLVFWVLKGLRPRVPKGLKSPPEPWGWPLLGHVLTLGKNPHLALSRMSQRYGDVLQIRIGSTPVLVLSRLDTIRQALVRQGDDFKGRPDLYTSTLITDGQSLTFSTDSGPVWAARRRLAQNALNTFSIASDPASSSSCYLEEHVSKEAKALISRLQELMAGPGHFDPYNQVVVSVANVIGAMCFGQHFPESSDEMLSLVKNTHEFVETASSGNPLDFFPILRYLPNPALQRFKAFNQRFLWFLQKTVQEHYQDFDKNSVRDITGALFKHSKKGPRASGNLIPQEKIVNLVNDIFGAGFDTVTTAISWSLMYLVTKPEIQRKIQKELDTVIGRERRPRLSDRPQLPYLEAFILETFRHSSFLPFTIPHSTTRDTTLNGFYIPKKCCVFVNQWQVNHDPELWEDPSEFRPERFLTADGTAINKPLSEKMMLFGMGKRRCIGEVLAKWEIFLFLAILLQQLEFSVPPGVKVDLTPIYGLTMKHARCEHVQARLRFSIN
UniProt P11712, whole entry: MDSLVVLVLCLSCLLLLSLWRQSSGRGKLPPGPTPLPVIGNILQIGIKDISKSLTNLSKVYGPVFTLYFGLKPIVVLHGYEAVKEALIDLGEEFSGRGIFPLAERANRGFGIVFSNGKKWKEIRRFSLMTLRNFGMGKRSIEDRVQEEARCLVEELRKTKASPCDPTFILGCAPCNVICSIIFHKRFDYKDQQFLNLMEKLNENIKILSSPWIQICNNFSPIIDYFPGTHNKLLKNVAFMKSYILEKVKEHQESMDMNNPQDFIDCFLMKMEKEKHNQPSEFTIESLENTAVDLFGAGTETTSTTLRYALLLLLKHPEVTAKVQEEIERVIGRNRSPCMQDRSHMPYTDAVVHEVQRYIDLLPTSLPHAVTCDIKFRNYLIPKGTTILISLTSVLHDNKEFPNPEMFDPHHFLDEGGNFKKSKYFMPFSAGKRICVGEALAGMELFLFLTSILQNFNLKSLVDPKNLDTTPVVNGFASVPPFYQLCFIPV

Like-named read-outs stand apart in the source and are kept apart here.

The target in data set [1] is T1, CYP2D6 (Homo sapiens, UniProt P10635).
For data set [2], the target named is CYP1A2 (Homo sapiens, UniProt P05177). The following applies: liver microsomes. (Liver microsomes are vesicles of endoplasmic reticulum, rich in cytochrome P450 enzymes.)
Data set [3] has as its target T2, CYP2C9 (Homo sapiens, UniProt P11712).
T2 construct: in human liver microsomes, the specific CYP contributions to total N-demethylation activity vary between individuals; from tissue; host or cells: human liver microsomes from different individuals
The following applies: liver microsomes.

The target of data set [4] is T1, CYP2D6. Details: in human liver microsomes, the specific CYP contributions to total N-demethylation activity vary between individuals; from tissue; host or cells: human liver microsomes from different individuals. The following applies: liver microsomes.

Turning to `CN(C)CCOC(c1ccccc1)c1ccccc1` [diphenhydramine], the “specific activity in N-demethylation of diphenhydramine” value in data set [1] is 0.69 pmol/min/pmol P450. Further, the “% Total Diphenhydramine N-demethylation Activity, CYP1A2” value in data set [2] (pooled) is recorded as 14.2%; in data set [2] (subject HG30) it was 31.6%; in data set [2] (subject HG66) it was 4.1%; in data set [2] (subject HG89), 36.0%; in data set [2] (subject HG112), 4.2%. Also, the “% Total Diphenhydramine N-demethylation Activity, CYP2C9” value in data set [3] (pooled) was 27.5%; in data set [3] (subject HG30) it was 45.9%; in data set [3] (subject HG66), 13.4%; in data set [3] (subject HG89) it was 32.1%; in data set [3] (subject HG112) it was 35.8%. In addition, the “% Total Diphenhydramine N-demethylation Activity, CYP2D6” value in data set [4] (pooled) is given as 48.4%; in data set [4] (subject HG30), 0%; in data set [4] (subject HG66), 81.3%; in data set [4] (subject HG89) it was 4.6%; in data set [4] (subject HG112) it was 12.1%.
